The record followed here is US20240108745A1 (MEDILINK THERAPEUTICS SUZHOU, published 2024).

Like-named read-outs stand apart in the source and are kept apart here.

Experiment [1] deals with T1, monkey B7H3-4IgG-his (monkey).
T1 construct: Recombinant antigen expressed in HEK293F; also called monkey B7H3-4Ig-his
T1 chain: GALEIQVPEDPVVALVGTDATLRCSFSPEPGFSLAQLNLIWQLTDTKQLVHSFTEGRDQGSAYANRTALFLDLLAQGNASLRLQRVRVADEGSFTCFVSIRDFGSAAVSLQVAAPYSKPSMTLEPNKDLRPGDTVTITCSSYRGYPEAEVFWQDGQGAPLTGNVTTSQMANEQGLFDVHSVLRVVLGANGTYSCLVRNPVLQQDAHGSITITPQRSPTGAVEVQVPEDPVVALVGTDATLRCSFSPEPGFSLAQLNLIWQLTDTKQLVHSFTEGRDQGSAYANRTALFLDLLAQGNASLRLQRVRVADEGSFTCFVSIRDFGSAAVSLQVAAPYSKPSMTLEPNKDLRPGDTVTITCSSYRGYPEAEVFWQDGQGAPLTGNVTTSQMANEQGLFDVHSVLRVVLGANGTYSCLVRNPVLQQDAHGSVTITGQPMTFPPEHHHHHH
The experiment is described as follows: BLI (Fortibio), antibody on ProA sensor, antigen 200-1.5625 nM, 1:1 model.

Experiment [2] addresses T2, human B7H3-4IgG-his (human, UniProt Q5ZPR3 27-461).
T2 construct: range 27-461; Recombinant antigen expressed in HEK293F; also called human B7H3-4Ig-his; human 4Ig B7H3
T2 sequence: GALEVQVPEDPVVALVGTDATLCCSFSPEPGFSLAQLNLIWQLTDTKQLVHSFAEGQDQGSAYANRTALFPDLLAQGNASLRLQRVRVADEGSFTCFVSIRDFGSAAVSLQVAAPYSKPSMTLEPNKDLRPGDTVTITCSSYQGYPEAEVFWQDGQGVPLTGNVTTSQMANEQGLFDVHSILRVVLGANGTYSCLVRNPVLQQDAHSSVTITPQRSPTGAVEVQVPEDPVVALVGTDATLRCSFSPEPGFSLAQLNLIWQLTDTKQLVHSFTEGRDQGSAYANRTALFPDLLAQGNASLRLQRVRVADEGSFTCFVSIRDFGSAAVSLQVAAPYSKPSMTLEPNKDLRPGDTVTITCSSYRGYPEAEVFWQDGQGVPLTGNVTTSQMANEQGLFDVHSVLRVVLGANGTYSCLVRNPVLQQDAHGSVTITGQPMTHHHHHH
The experiment is described as above.

A further experiment has as its target T3, human B7H3-2IgG-his (human, UniProt Q5ZPR3-2 29-245).
T3 construct: range 29-245; The range 29-245 counts on NCBI NP_001316557.1 as printed; also called Human B7H3-2Ig-his; human 2Ig B7H3
T3 sequence: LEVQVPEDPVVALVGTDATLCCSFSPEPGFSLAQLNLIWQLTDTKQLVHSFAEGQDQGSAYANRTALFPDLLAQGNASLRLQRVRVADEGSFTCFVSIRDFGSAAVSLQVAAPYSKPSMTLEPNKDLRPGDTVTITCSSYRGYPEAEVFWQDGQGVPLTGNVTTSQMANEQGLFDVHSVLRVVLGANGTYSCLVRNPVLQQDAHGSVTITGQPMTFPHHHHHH
The description is as above.

Experiment [3] addresses T4, human B7-1 (human, UniProt P33681 35-242).
T4 construct: Bought protein
T4 sequence (looked up): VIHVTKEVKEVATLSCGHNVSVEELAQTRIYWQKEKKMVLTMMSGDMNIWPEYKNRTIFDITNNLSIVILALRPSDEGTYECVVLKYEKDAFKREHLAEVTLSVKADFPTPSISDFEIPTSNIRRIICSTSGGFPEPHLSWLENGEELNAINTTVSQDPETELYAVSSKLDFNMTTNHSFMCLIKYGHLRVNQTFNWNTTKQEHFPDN
The experiment is described as follows: ELISA, human B7-1 coated at 1 µg/mL, single antibody concentration, OD 450 nm.

Experiment [4] addresses T2, human B7H3-4IgG-his. In words: BLI (Fortibio); reference human B7H3-2Ig-his.
Experiment [5] addresses T5, human B7H2-his (human, UniProt O75144 19-258, limits assumed).
T5 construct: Bought protein
T5 sequence (looked up): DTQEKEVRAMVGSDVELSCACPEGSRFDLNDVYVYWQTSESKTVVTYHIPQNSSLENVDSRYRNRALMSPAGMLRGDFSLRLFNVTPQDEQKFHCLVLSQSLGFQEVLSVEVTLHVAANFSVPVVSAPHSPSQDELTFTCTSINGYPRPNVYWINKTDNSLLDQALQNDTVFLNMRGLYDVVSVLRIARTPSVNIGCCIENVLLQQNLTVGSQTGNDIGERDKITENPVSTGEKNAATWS
In words: ELISA, human B7H2-his coated at 1 µg/mL, single antibody concentration, OD 450 nm.

For experiment [6], the target named is T6, human B7H1-his (human, UniProt Q9NZQ7 19-239).
T6 construct: Bought protein
The experiment is described as follows: ELISA, human B7H1-his coated at 1 µg/mL, single antibody concentration, OD 450 nm. (In general: In an ELISA, binding on a coated surface is turned into a signal by an enzyme label.)

The target in experiment [7] is T7, human B7-2 (human, UniProt P42081 24-245, limits assumed).
T7 construct: Bought protein
T7 sequence (looked up): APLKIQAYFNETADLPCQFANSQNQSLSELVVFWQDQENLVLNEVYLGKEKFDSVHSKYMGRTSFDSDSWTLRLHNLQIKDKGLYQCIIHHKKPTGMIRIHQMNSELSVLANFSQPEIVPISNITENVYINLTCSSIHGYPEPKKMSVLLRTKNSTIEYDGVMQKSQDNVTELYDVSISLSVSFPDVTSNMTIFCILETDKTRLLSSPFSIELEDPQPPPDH
The experiment is described as follows: ELISA, human B7-2 coated at 1 µg/mL, single antibody concentration, OD 450 nm.

The target in experiment [8] is T1, monkey B7H3-4IgG-his. The experiment is described as follows: ELISA, antigen coated at 1 µg/mL, antibody titrated, anti-human Fc-HRP. The procedure:
(§1) The plate was washed 5 times with PBST. TMB chromogenic solution was added at 100 μL/well and incubated at 37° C. for 7 min to develop color, and then the stop solution was added at 50 μL/well to terminate the reaction.

Experiment [9] addresses T2, human B7H3-4IgG-his. The description is as above. The method, then: as §1
The target in experiment [10] is T8, human B7H4-his (human, UniProt Q7Z7D3 25-258, limits assumed).
T8 construct: Bought protein
T8 sequence (looked up): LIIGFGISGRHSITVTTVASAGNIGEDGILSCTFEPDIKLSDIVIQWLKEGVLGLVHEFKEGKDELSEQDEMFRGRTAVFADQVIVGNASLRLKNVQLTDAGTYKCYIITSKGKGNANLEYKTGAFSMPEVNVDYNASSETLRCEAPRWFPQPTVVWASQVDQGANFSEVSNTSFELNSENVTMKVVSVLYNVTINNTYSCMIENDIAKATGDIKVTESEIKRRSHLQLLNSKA
The experiment is described as follows: ELISA, human B7H4-his coated at 1 µg/mL, single antibody concentration, OD 450 nm.

Experiment [11] addresses T4, human B7-1. The experiment is described as follows: ELISA, human B7-1 coated at 1 µg/mL, single antibody concentration, OD 450 nm. The source holds these as a separate data set.
The target in experiment [12] is T6, human B7H1-his. In words: ELISA, human B7H1-his coated at 1 µg/mL, single antibody concentration, OD 450 nm. This is another data set of the same source.
In experiment [13] the target is T8, human B7H4-his. The experiment is described as follows: ELISA, human B7H4-his coated at 1 µg/mL, single antibody concentration, OD 450 nm. This is another data set of the same source.
Experiment [14] addresses T5, human B7H2-his. The experiment is described as follows: ELISA, human B7H2-his coated at 1 µg/mL, single antibody concentration, OD 450 nm. The source holds these as a separate data set.
Experiment [15] concerns the target T7, human B7-2. In words: ELISA, human B7-2 coated at 1 µg/mL, single antibody concentration, OD 450 nm. The source holds these as a separate data set.

B1: anti-B7H3 antibody 2E3-02 (antibody, human IgG1, kappa, V domains shown)
VH: EVQLLESGGGLVQPGGSLRLSCAASGFTFSSYAMNWVRQAPGKGLEWVSGISGSGGSTYYADSVQGRFTISRDNSKNTLYLQMNSLRAEDTAVYYCAKARSGYDYFFDYWGQGTLVTVSS
VL: EIVLTQSPGTLSLSPGERATLSCRASQRISSSFLAWYQQKPGQAPSLLIYGASSRATGIPDRFSGSGSGTDFTLTISSLEPEDFAVFYCQQYSNSPLTFGGGTKVEIKR
Broadly, the Kd is a measure of binding affinity in units of concentration. Usually EC50 stands for the concentration giving half of the maximal effect. Take B1: the Kd with monkey B7H3-4IgG-his [1] amounted to 0.47 nM; in the experiment with human B7H3-4IgG-his [2], 0.24 nM; with human B7H3-2IgG-his, 7.8 nM. Moreover, the binding result in the experiment with human B7-1 [3], with human B7H2-his [5], with human B7H1-his [6], in the experiment with human B7-2 [7] and in the experiment with human B7H4-his [10] was “no binding (tested: 10 µg/mL)” in each case. In the experiment with human B7H3-4IgG-his [4], the “dynamic affinity fold, human B7H3-4Ig-his/human B7H3-2Ig-his” value was 32.5 fold. For the same molecule, the EC50 in the experiment with monkey B7H3-4IgG-his [8] was determined as 0.0277 nM; in the experiment with human B7H3-4IgG-his [9], 0.0175 nM.

B2: anti-B7H3 antibody 1D1-01 (antibody, human IgG1, kappa, V domains shown)
VH: EGQLVESGGGLVQPGGSLRLSCAASGFTISSYWMNWVRQAPGKGLEWVANIKQDGSEKYYVDSVQGRFTISRDNAKNSLYLQMNSLRAEDTAVYYCARRMYSSGWYWGAFDMWGQGTMVTVSS
VL: EIVLTQSPGTLSLSPGERATLSCRASQSVSSIYLAWNQQKPGQAPRLLIYGTFKRATGIPDRFSGSGSGTDFTLTISSLEPEDFAVYYCQQYDTSSITFGQGTRLEIKR
For the molecule B2, the Kd with monkey B7H3-4IgG-his [1] was 0.25 nM; with human B7H3-4IgG-his [2] it was 0.043 nM; with human B7H3-2IgG-his, 0.41 nM. Moreover, the binding result with human B7-1 [11], in the experiment with human B7H1-his [12], with human B7H4-his [13], with human B7H2-his [14] and with human B7-2 [15] was “no binding (tested: 10 µg/mL)” each time. Besides, the “dynamic affinity fold, human B7H3-4Ig-his/human B7H3-2Ig-his” value with human B7H3-4IgG-his [4] came out at 9.5 fold. For the same molecule, the EC50 with monkey B7H3-4IgG-his [8] was determined as 0.0358 nM; with human B7H3-4IgG-his [9], 0.0436 nM.
